Our source for the IC50 values is US20250276078A1, “Camptothecin Derivative And Ligand-drug Conjugate Thereof” (Baili-Bio (Chengdu) Pharmaceutical Co., Ltd., priority 2020, published 2025).

The assay deals with MDA-MB-468. Nature of the assay: Cell activity test of camptothecin chiral derivatives (MTS). The class given is cell-based. The conditions noted are these: Homo sapiens, 72 h; MDA-MB-468, 3 days. The procedure: The cytotoxic activity of camptothecin chiral derivatives was determined by the following experimental procedure: the chiral derivatives of camptothecin were added to A431, MDA-MB-468, SK-BR-3, Bxpc-3 and SW620 tumor cells, respectively, and the cell survival rate was determined 72 hours later. Cell-based in vitro experiments are used to determine cell survival, cytotoxicity and programmed cell death induced by camptothecin drugs disclosed in the present invention.
The in vitro efficacy of camptothecin was determined by cell proliferation test. CellTiter 96® Aqueous One Solution Cell Proliferation Assay is commercially available (Promega Corp., Madison, WI). […] For detection, appropriate amount of CellTiter96® Aqueous One Solution Reagent is added directly into the medium of culture plate hole, incubated for 1-4 hours, and the absorbance value of 490 nm is read with enzyme label instrument.
The amount of methylate detected at 490 nm is proportional to the number of live cells in the culture. […]
In the invention, A431, MDA-MB-468, SK-BR-3, Bxpc-3 and SW620 are used as the research system of in vitro efficacy detection. […] By detecting the activity of dehydrogenase in mitochondria, IC50 was calculated to evaluate the inhibitory effect of camptothecin on cell proliferation. […]

As to `CC[C@@]1(O)C(=O)OCc2c1cc1n(c2=O)Cc2c-1nc1cc(F)c(C)c3c1c2[C@H](NC(=O)[C@@H](O)C(F)(F)F)CC3` [Compound 6], half-maximal inhibition (IC50) was put at 2.79 nM.
